Data: ChEMBL document CHEMBL1770106 (Eur J Med Chem, 2011)

Molecular target: T1, Ribosyldihydronicotinamide dehydrogenase [quinone] (Homo sapiens, UniProt P16083)
T1 sequence (P16083 whole entry): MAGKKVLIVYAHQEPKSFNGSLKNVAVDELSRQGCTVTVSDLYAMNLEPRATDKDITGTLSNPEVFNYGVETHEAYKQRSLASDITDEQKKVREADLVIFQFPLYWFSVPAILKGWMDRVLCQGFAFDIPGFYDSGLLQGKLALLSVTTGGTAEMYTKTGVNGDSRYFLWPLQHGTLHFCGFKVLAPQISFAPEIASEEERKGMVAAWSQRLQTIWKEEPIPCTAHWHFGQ
Test: Binding affinity to low affinity melatonin (MT3) site of quinone reductase 2

IC50: 2.7 nM
Structure (SMILES): COC(=O)Nc1ccc2[nH]cc(CCNC(C)=O)c2c1
